Earlier results in patent US20080076729A1, “Interferon-beta gene therapy using an improved, regulated expression system” (Schering Aktiengesellachaft, priority 2005, published 2008).

System: multiple sclerosis

B1: Recombinant interferon beta (IFN-β): recombinant IFN-β protein drug for MS introduced in 1993 (protein, UniProt P01574 22-187, looked up)
Interferon beta: MSYNLLGFLQRSSNFQCQKLLWQLNGRLEYCLKDRMNFDIPEEIKQLQQFQKEDAALTIYEMLQNIFAIFRQDSSSTGWNETIVENLLANVYHQINHLKTVLEEKLEKEDFTRGKLMSSLHLKRYYGRILHYLKAKEYSHCAWTIVRVEILRNFYFINRLTGYLRN
- decrease in the number of relapses in MS patients (overall, annually): 30-37%
